Laboratory results published in patent US11845808B2, “Peptide inhibitors of interleukin-23 receptor and their use to treat inflammatory diseases” (Janssen Biotech, Inc., priority 2020, dated 2023).

Sequences of proteins named here, by UniProt entry; tags and fusion partners are left off. Residues count along the entry.
UniProt Q5VWK5, 24-629 limits assumed: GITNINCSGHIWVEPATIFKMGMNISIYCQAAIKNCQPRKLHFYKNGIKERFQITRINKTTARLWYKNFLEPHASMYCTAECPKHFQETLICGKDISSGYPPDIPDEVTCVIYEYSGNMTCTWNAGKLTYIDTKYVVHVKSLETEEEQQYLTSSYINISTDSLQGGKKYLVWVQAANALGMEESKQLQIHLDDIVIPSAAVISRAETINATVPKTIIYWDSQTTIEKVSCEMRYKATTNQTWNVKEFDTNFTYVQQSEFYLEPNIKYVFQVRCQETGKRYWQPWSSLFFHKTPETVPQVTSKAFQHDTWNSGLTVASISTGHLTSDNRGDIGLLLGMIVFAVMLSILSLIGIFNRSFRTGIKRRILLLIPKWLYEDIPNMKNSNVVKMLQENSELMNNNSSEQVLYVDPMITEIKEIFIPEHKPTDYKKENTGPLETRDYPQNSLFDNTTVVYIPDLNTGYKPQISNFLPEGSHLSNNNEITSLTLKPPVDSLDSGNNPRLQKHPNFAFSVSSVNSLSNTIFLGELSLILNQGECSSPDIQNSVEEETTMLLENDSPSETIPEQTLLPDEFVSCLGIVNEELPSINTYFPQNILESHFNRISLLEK

What was measured:
[1] = molecular target: IL-23 induced IFNγ in natural killer (NK) cells (Homo sapiens, UniProt Q5VWK5); experiment: NK cell based assay (IL-23/IL-18 induced IFNγ); conditions: IL-23 at EC50 to EC75 and IL-18 10 ng/mL, IFNγ in supernatant after 20 to 24 hours
Text: Example 3: NK Cell Based Assay

[2] = Stability in cynomolgus monkey fecal homogenate; format: in vitro ADME; conditions: 20% cynomolgus monkey fecal homogenate, 37° C., 20 μM
Protocol: (§1) Studies were carried out in human or cynomlogus monkey fecal homogenate to evaluate gastrointestinal stability of the peptide inhibitors of the present invention.
(§2) Fecal homogenate (20%) was prepared by adding 4 mL of growth medium (1 liter contains 2 g peptone water powder, 2 g yeast extract, 0.1 g NaCl, 0.04 g KH2PO4, 0.01 g CaCl2·6H2O, 0.01 g MgSO4.7H2O, 2 mL Tween 80, 0.5 g bile salts, 0.5 g L-cysteine HCl, 2 g NaHCO3, and 10 μL Vitamin K, pH adjusted to 6.8, and sterilized by filtration through a 0.22 μm filter) to every gram of feces (pooled freshly collected human or cynomolgus monkey feces). The suspension was vortexed to break up large clumps, and homogenized using a bead mill homogenizer. Centrifuged the homogenate at 2800×g for 15 min. The supernatant is taken out and used for incubations. DMSO stocks (10 mM) were first prepared for the test compounds. Incubations were performed in an anaerobic chamber conditioned at 37° C. Aliquots of the DMSO solutions were dosed into 1.0 mL aliquots of 20% fecal homogenate, which are pre-warmed to 37° C. The final test compound concentration was 20 μM. At each timepoint (0, 20 min, 1, 3, 6, or 24 hours), 100 μL aliquot of each incubation mixture is taken out and added to separate tubes containing 300 μL of 50% acetonitrile/50% methanol and an internal standard to terminate the reaction. Samples were taken out of the anaerobic chamber and stored at 4° C. until the end of the experiment. After the final timepoint is sampled, the tubes were mixed and then centrifuged at 3,000 rpm for 10 minutes. Aliquots of the supernatant were removed, diluted 1:1 into distilled water containing 0.1% formic acid, and analyzed by LC/MS/MS. Percent remaining at each timepoint was calculated based on the peak area response ratio of test to compound to internal standard. Time 0 was set to 100%, and all later timepoints were calculated relative to time 0. Half-lives were calculated by fitting to a first-order exponential decay equation using Graphpad or Excel.

[3] = Stability in simulated intestinal fluid (SIF); format: in vitro ADME; conditions: 100 fold dilution of standard SIF concentration, 37° C., 20 μM
Protocol: Studies were carried out in simulated intestinal fluid (SIF) and simulated gastric fluid (SGF) to evaluate gastric stability of the peptide inhibitors of the present invention. In addition, studies were carried out to assess redox stability of the peptide inhibitors of the present invention.
SIF was prepared by adding 6.8 g of monobasic potassium phosphate and 10.0 g of pancreatin to 1.0 L of water. After dissolution, the pH was adjusted to 6.8 using NaOH. DMSO stocks (2 mM) were first prepared for the test compounds. Aliquots of the DMSO solutions were dosed into 6 individual tubes, each containing 0.5 mL of SIF, which is pre-warmed to 37° C. The final test compound concentration was 20 μM. The vials were kept in a benchtop Thermomixer® for the duration of the experiment. At each timepoint (0, 5, 10, 20, 40, 60, or 360 minutes or 24 hours), 1.0 mL of acetonitrile containing 1% formic acid was added to one vial to terminate the reaction. Samples were stored at 4° C. until the end of the experiment. After the final timepoint is sampled, the tubes were mixed and then centrifuged at 3,000 rpm for 10 minutes. Aliquots of the supernatant were removed, diluted 1:1 into distilled water containing internal standard, and analyzed by LCMS/MS. Percent remaining at each timepoint was calculated based on the peak area response ratio of test to compound to internal standard. Time 0 was set to 100%, and all later timepoints were calculated relative to time 0. Half-lives were calculated by fitting to a first-order exponential decay equation using Graphpad.

[4] = Stability in human fecal homogenate; format: in vitro ADME; conditions: 20% human fecal homogenate, 37° C., 20 μM
Protocol: as §1, §2

[5] = Stability in rat plasma; format: in vitro ADME; conditions: SD rat plasma, 37° C., 20 μM
Protocol: Example 6: Stability of Peptide Inhibitors in Rat Plasma
Peptides of interest (20 μM) were incubated with pre-warmed rat plasma (SD rat, mixed gender pooled, EDTA, filtered through 0.22 μm, BioreclamationIVT) at 37° C. Aliquots were taken at various time points up to 24 hours (e.g. 0, 0.25, 1, 3, 6 and 24 hr), and immediately quenched with 4 volumes of organic solvent (acetonitrile/methanol (1:1) and 0.1% formic acid, containing 1 μM internal standard). Quenched samples were stored at 4° C. until the end of the experiment and centrifuged at 4,000 rpm for 10 minutes. The supernatant were diluted 1:1 with deionized water and analyzed using LC-MS. Percentage remaining at each time point was calculated based on the peak area ratio (analyte over internal standard) relative to the initial level at time zero. Half-lives were calculated by fitting to a first-order exponential decay equation using GraphPad.

Substance	pIC50 [1]	t½: Monkey Feces anaerobic [2]	SIF t½ [3]	t½: Human Feces anaerobic [4]	t½: Rat Plasma EDTA [5]
Ac-[Pen]-N-T-W-[Lys(Ac)]-[Pen]-Phe[4-(2-aminoethoxy)]-[2-Nal]-[THP]-E-N-[3Pal]-[Sarc]-NH2 [Peptide 162]	10.54				
Ac-[Pen]-N-T-[(W(7-(3-pyrazol-1-yl))]-[Lys(Ac)]-[Pen]-Phe[4-(2-aminoethoxy)]-[2-Nal]-[THP]-E-N-[3Pal]-[Sarc]-NH2 [Peptide 148]	10.60	>24.0 h	>24.0 h	>24.0 h	
Ac-[Pen]-N-T-[W(7-3BiPh)]-[Lys(Ac)]-[Pen]-Phe[4-(2-aminoethoxy)]-[2-Nal]-[THP]-E-N-H-[Sarc]-NH2 [Peptide 68]	8.97	>24.0 h	>24.0 h	>24.0 h	>24.0 h
Ac-[Pen]-N-T-[W(7-(1-Nal))]-[Lys(Ac)]-[Pen]-Phe[4-(2-aminoethoxy)]-[2-Nal]-[THP]-E-N-H-[Sarc]-NH2 [Peptide 71]	8.54	>24.0 h	>24.0 h	>24.0 h	>24.0 h
Ac-[Pen]-N-T-[W(7-(2-FPh)]- [Lys(Ac)]-[Pen]-Phe[4-(2-aminoethoxy)]-[2-Nal]-[a-MeLys]-[Lys(Ac)]-N-H-[Sarc]-NH2 [Peptide 46]	8.86	>24.0 h	>24.0 h	>24.0 h	>24.0 h
Ac-[Pen]-N-T-[W(7-(3,5-t-Bu-Ph))]-[Lys(Ac)]-[Pen]-Phe[4-(2-aminoethoxy)]-[2-Nal]-[THP]-E-N-H-[Sarc]-NH2 [Peptide 73]	8.09	23.2 h	>24.0 h	>24.0 h	>24.0 h
Ac-[Pen]-N-T-[W(7-(4BiPh))]-[Lys(Ac)]-[Pen]-Phe[4-(2-aminoethoxy)]-[2-Nal]-[THP]-E-N-H-[Sarc]-NH2 [Peptide 72]	8.74	>24.0 h	>24.0 h	>24.0 h	>24.0 h
Ac-[Pen]-N-T-[W(7-(Phenanthren-5-yl))]-[Lys(Ac)]-[Pen]-Phe[4-(2-aminoethoxy)]-[2-Nal]-[THP]-E-N-H-[Sarc]-NH2 [Peptide 69]	8.00	>24.0 h	>24.0 h	>24.0 h	>24.0 h
Ac-[Pen]-N-T-[W(7-CN)]-[Lys(Ac)]-[Pen]-Phe[4-(2-aminoethoxy)]-[2-Nal]-[THP]-E-N-[3Pal]-[Sarc]-NH2 [Peptide 155]	10.31				
Ac-[Pen]-N-T-[W(7-Me)]-[Lys(Ac)]-[Pen]-Phe[4-(2-aminoethoxy)]-[2-Nal]-[THP]-E-G-H-[Sarc]-NH2 [Peptide 64]	8.85	14 h	>24.0 h	13.3 h	>24.0 h
Ac-[Pen]-N-T-[W(7-Me)]-[Lys(Ac)]-[Pen]-Phe[4-(2-aminoethoxy)]-[2-Nal]-[THP]-E-[(D)Asn]-H-[Sarc]-NH2 [Peptide 63]	7.55	>24.0 h	>24.0 h	>24.0 h	>24.0 h
Ac-[Pen]-N-T-[W(7-Me)]-[Lys(Ac)]-[Pen]-Phe[4-(2-aminoethoxy)]-[2-Nal]-[THP]-E-[h(Ser)]-H-[Sarc]-NH2 [Peptide 65]	8.74	12.5 h	>24.0 h	14.7 h	>24.0 h
Ac-[Pen]-N-T-[W(7-Me)]-[Lys(Ac)]-[Pen]-Phe[4-(2-aminoethoxy)]-[2-Nal]-[a-MeLys]-[Lys(Ac)]-N-[2Pal]-NH2 [Peptide 79]	8.57	19 h	0.3 h	22.9 h	
Ac-[Pen]-N-T-[W(7-Me)]-[Lys(Ac)]-[Pen]-Phe[4-(2-aminoethoxy)]-[2-Nal]-[a-MeLys]-[Lys(Ac)]-N-[(D)Leu]-[Sarc]-NH2 [Peptide 20]	8.54	>24.0 h	>24.0 h	>24.0 h	20.6 h
Ac-[Pen]-N-T-[W(7-Me)]-[Lys(Ac)]-[Pen]-Phe[4-(2-aminoethoxy)]-[2-Nal]-[a-MeLys]-[Lys(Ac)]-N-[(D)Lys]-[Sarc]-NH2 [Peptide 21]	8.69	22.7 h	>24.0 h	>24.0 h	>24.0 h
Ac-[Pen]-N-T-[W(7-Me)]-[Lys(Ac)]-[Pen]-Phe[4-(2-aminoethoxy)]-[3-Quin]-[THP]-E-N-[(D)Lys]-[Sarc]-NH2 [Peptide 3]	8.69	>24.0 h	>24.0 h	>24.0 h	10.9 h
Ac-[Pen]-N-T-[W(7-Me)]-[Lys(Ac)]-[Pen]-Phe[4-(2-aminoethoxy)]-[3-Quin]-[a-MeLys]-[Lys(Ac)]-N-[(D)His]-[Sarc]-NH2 [Peptide 4]	8.24	>24.0 h	>24.0 h	>24.0 h	>24.0 h
Ac-[Pen]-N-T-[W(7-Me)]-[Lys(Ac)]-[Pen]-Phe[4-(2-aminoethoxy)]-[3Quin]-[a-MeLys]-[Lys(Ac)]-N-[2Pal]-NH2 [Peptide 78]	6.59				
Ac-[Pen]-N-T-[W(7-Me)]-[Lys(Gly)]-[Pen]-Phe[4-(2-aminoethoxy)]-[2-Nal]-[a-MeLys]-[Lys(Ac)]-N-[(D)Leu]-[Sarc]-NH2 [Peptide 29]		17.5 h	>24.0 h	5.7 h	22.2 h
Ac-[Pen]-N-T-[W(7-Ph)]-[Lys(Ac)]-[Pen]-Phe[4-(2-aminoethoxy)]-[2-Nal]-[THP]-E-N-[3Pal]-[(D)NMeTyr]-NH2 [Peptide 123]	10.38		>24.0 h		>24.0 h
Ac-[Pen]-N-T-[W(7-Ph)]-[Lys(Ac)]-[Pen]-Phe[4-(2-aminoethoxy)]-[2-Nal]-[a-MeLys]-[Lys(Ac)]-N-[3Pal]-[(D)NMeTyr]-NH2 [Peptide 122]	10.10		>24.0 h		>24.0 h

pIC50: −log10 of the molar value.
